Compound activity deposited in PubChem by National Center for Advancing Translational Sciences (NCATS).
In the library only some 3.7% were active in any assay of this set; here they are far more common.
miR-21 reporter – miR-21 reporter, rising signal | AID 2288 | HeLa miR-21 FLuc reporter, luciferase, 48 h | 340,000 tested, under 10 active | Potency, µM (doses to about 38.3 µM), for inactives: at the top dose reporter change, positive = more light; active = well fitted rising curve with a large enough effect; inconclusive = small, poorly fitted or top-dose-only effect; inactive = no such curve, though single readings can be large or run the other way;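 note: % of control where 0% means no effect; miR-21 action dims this reporter so a rising signal means less miR-21 action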
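HeLa miR-21-FLuc reporter line, endogenous miR-21; 2000 cells/well in DMEM/10% FBS; compound titration up to ~40uM final, 48 h, 37 degree Celsius; luciferase detection reagent, 15 min lysis, CCD luminescence.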
A549 viability – A549 cytotoxicity, counter-screen for Nrf2 inhibitors | A549 ARE-Fluc cells, CellTiter-Fluor viability, 18-24 h | Potency, µM (titrated, usually from 46 µM), for the others: top-dose activity change, negative = cytotoxicity, hits mostly inhibitors | hit rate 0.16% among 390,000 | AID 504648; note: potency is the fitted concentration of half-maximal effect; % is set by controls: 0 for no effect and ±100 for the full control effect
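Cytotoxicity counterscreen: CellTiter-Fluor fluorescence was measured in A549 ARE_Fluc cells after 18-24 h of compound exposure in a concentration series. The subsequent BugLite luminescent read reports ARE-luciferase activity.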
Nrf2 ARE act – activates Nrf2 signaling; hit rate 0.31% among 410,000; Potency, µM (titrated, usually from 46.1 µM), for the others: at the top dose activation, hits mostly activators; AREc32 ARE-luciferase reporter (MCF7-derived line), luminescence, 24 h; note: potency is the fitted concentration of half-maximal effect; % of control where 0% means no effect; nearly all actives have a fitted effect of over 65% in size
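Reporter line AREc32 (ARE-Fluc), seeded overnight in OPTI-MEM with 5% FBS; compound pin-transferred, 24 hr at 37 deg C, 5% CO2; luminescent read-out.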
Nrf2 block – blocks Nrf2 signaling; A549 ARE-Fluc reporter, luciferase luminescence, 18-24 h; Potency, µM (highest dose often 46 µM), without a hit: at the highest dose activity change, negative = inhibition, most hits filed as inhibitors; hit rate 2.1% among 360,000; AID 504444; note: potency is the fitted concentration of half-maximal effect; % is set by controls: 0 for no effect and ±100 for the full control effect; nearly all actives have a fitted effect of over 60% in size
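Cells were seeded and rested 2 h, then exposed to compounds for 18-24 h. CellTiter-Fluor was read first as a viability measure. BugLite was added 15 min before the final luminescent read of ARE-luciferase activity in A549 cells.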
ClpP mod – qHTS Assay for Activators of ClpP | purified B. subtilis ClpP, FRET peptide cleavage, 20 min | Potency, µM (titrated, usually from 57.5 µM), for the others: at the top dose activity change, negative = active | AID 651965, 2013 | ATP-dependent Clp protease proteolytic subunit (Bacillus subtilis (strain 168)), P80244 | hit rate 1.9% among 340,000; active = well fitted falling curve with a large enough effect; inconclusive = small, poorly fitted or top-dose-only effect; inactive = no such curve, though single readings can be large or run the other way; note: potency is the fitted concentration of half-maximal effect; the source files actives as falling curves though it sought activators and does not explain the sign; nearly all actives have a fitted effect of over 65% in size
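FRET quenching reversal measured ClpP activation: 10 microg/mL B. subtilis ClpP at pH 8 with the FRET-FV decapeptide, read at 430 nm after 320 nm excitation. The 20-min minus 0-min signal was scaled between DMSO/no-enzyme wells and ADEP (5.8 microM final).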
IL2 activator – activates IL-2 in a cell-based reporter assay. IL-2 activation reporter assay, cell-based qHTS; stimulated with anti-CD3/CD4/CD28 beads; in transgenic mouse T cells. activation, % (series mostly up to about 46 µM). hit rate 0.065% among 360,000. AID 652025; in the data active = activation above about 50%; inconclusive = mostly about 30% to 49%; note: 0% is about no effect
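Unstimulated transgenic mouse T cells, 750 per well, received compound and, after 60 minutes, anti-CD3/anti-CD4 bead plus anti-CD28 stimulation. EGFP and DsRed were quantified after 18 hours.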
The depositor's hits bear a star; ? = inconclusive; · = no result; [ ] = dose if it differs, or a comment. Unless noted, calls come from the whole dose curve; as a rule, active = well fitted curve in the direction sought with a large enough effect; inconclusive = small, poorly fitted or top-dose-only effect, or another doubt; inactive = no such curve, though single readings can be large; an effect the other way counts as inactive or inconclusive.

Chains of the proteins cited; added tags and fusions are not shown.
ATP-dependent Clp protease proteolytic subunit (Bacillus subtilis (strain 168)), P80244, UniProt P80244, whole entry, looked up: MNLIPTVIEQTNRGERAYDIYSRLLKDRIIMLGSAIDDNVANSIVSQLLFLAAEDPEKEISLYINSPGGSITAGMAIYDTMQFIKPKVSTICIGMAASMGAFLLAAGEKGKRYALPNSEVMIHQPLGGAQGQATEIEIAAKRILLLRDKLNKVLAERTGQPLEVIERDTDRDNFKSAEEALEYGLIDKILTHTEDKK

Screens by letter: A = miR-21 reporter; B = A549 viability; C = Nrf2 ARE act; D = Nrf2 block; E = ClpP mod; F = IL2 activator
NS(=O)(=O)c1ccc(CCNC(=O)C2CCCN2C(=O)OCc2ccccc2)cc1 (centres undefined)
  A = -1%; B = 13%; C = 1%; D = 12%; E = 32µM*; F = -2

NS(=O)(=O)c1ccc(CCNC(=O)C2CCN(S(=O)(=O)c3ccccc3)CC2)cc1
  A = 4%; B = 0%; C = 0%; D = 0%; E = 28µM*; F = 3

NS(=O)(=O)c1ccc(CCNC(=O)CN2CCC(Cc3ccccc3)CC2)cc1
  A = 19%; B = -10%; C = 2%; D = 21µM*; E = ·; F = -1

O=C(CN1CCC(Cc2ccccc2)CC1)NCCc1ccc(F)cc1
  A = 1%; B = ?; C = 0%; D = ?; E = ·; F = 7

CCS(=O)(=O)NCCc1csc2nc(-c3ccc(OC)cc3)nn12
  A = -14%; B = -1%; C = 6%; D = ·; E = 0%; F = ·

COc1ccccc1NC(=O)C1=C(C)Nc2nc(-c3ccco3)nn2C1c1ccccc1F (centres undefined)
  A = 6%; B = 1%; C = 26%; D = ?; E = -5%; F = ·

CCC(=O)N(CC)C1=C(O)c2ccccc2C(=O)C1=O
  A = -3%; B = -2%; C = 4%; D = -11%; E = 3%; F = 0

CCC(=O)N(C1=C(NC)C(=O)c2ccccc2C1=O)C(C)C
  A = ?; B = ?; C = -4%; D = 16µM*; E = -3%; F = -1

CNC1=C(N(C(C)=O)c2ccc(Br)cc2)C(=O)c2ccccc2C1=O
  A = 29%; B = ?; C = -3%; D = 16µM*; E = -2%; F = 0

COc1ccc(CNC(=O)c2cc(=O)[nH]c3ccc(S(=O)(=O)N4CCCC4)cc23)c(OC)c1
  A = -1%; B = 5%; C = 0%; D = ·; E = -1%; F = ·

Cc1nc(SCC(=O)c2cc3ccccc3oc2=O)c(C#N)c(-c2ccccc2)c1C(=O)Nc1ccccc1
  A = -5%; B = -13%; C = 0%; D = 23µM*; E = 2%; F = 1

O=S(=O)(c1cccs1)N1CN(Cc2cccs2)c2nc3ccccc3nc21
  A = -9%; B = -12%; C = 1%; D = -14%; E = -12%; F = 1

C=CCN1CN(S(=O)(=O)c2cccs2)c2nc3ccccc3nc21
  A = -13%; B = -6%; C = 4%; D = ·; E = 25µM*; F = 1

CCc1sc(C(=O)Nc2cc(Cl)ccc2N2CCCCC2)cc1C
  A = -7%; B = 1%; C = 1%; D = 10%; E = 22µM*; F = 0

Cc1noc(C)c1CSCC(=O)N1CCN(c2ccc(F)cc2)CC1
  A = 8%; B = 12%; C = 0%; D = ?; E = 2%; F = 0

Cc1cccc(N2CCN(C(=O)CSCc3c(C)noc3C)CC2)c1C
  A = -2%; B = -8%; C = 2%; D = 1.8µM*; E = -2%; F = -1

Cc1noc(C)c1CSCC(=O)Nc1cc(C(F)(F)F)ccc1N1CCCCC1
  A = ·; B = -1%; C = 0%; D = -10%; E = -1%; F = -6

Cc1noc(C)c1CSCC(=O)Nc1cc(Cl)ccc1N1CCCCC1
  A = ·; B = -10%; C = 7%; D = -19%; E = 25µM*; F = 0

CC(=O)N1c2c(cc(Br)cc2S(=O)(=O)N2CCN(c3cccc(Cl)c3)CC2)CC1C (centres undefined)
  A = 21%; B = 9%; C = -1%; D = -13%[9.27 µM]; E = -1%; F = ·

CCCCCC(=O)Nc1ccc(S(=O)(=O)Nc2nccnc2OC)cc1
  A = -7%; B = -18%; C = 0%; D = 0%; E = 25µM*; F = 1

Part of the list above, field by field.
SMILES: O=S(=O)(c1cccs1)N1CN(Cc2cccs2)c2nc3ccccc3nc21
  miR-21 reporter: -9%
  A549 viability: -12%
  Nrf2 ARE act: 1%
  Nrf2 block: -14%
  ClpP mod: -12%
  IL2 activator: 1
SMILES: CCc1sc(C(=O)Nc2cc(Cl)ccc2N2CCCCC2)cc1C
  miR-21 reporter: -7%
  A549 viability: 1%
  Nrf2 ARE act: 1%
  Nrf2 block: 10%
  ClpP mod: 22µM*
  IL2 activator: 0
SMILES: Cc1noc(C)c1CSCC(=O)Nc1cc(Cl)ccc1N1CCCCC1
  miR-21 reporter: ·
  A549 viability: -10%
  Nrf2 ARE act: 7%
  Nrf2 block: -19%
  ClpP mod: 25µM*
  IL2 activator: 0

Carrying on.
Screens by letter: A = miR-21 reporter; B = A549 viability; C = Nrf2 ARE act; D = Nrf2 block; E = ClpP mod; F = IL2 activator
Cc1cc2c(s1)c1cnn(Cc3ccc(F)c(F)c3F)c(=O)c1n2C
  A = ·; B = 2%; C = ·; D = -4%; E = ·; F = ·

Cc1onc(-c2ccccc2)c1C(=O)Nc1ccc2c(C)cc(=O)oc2c1
  A = -10%; B = -3%; C = 3%; D = ·; E = 16µM*; F = 3

Cc1noc(NC(=O)c2c(-c3c(Cl)cccc3Cl)noc2C)c1[N+](=O)[O-]
  A = -1%; B = -13%; C = 0%; D = 15µM*; E = -7%; F = 1

Cc1onc(-c2ccccc2)c1C(=O)Nc1nnc(-c2ccncc2)s1
  A = -3%; B = 11%; C = 0%; D = 10%; E = 32µM*; F = -2

Cc1onc(-c2ccccc2)c1C(=O)Nc1ccncc1
  A = 4%; B = 3%; C = 0%; D = 8%; E = -3%; F = -1

Cc1onc(-c2ccccc2)c1C(=O)Nc1ncc([N+](=O)[O-])s1
  A = ?; B = ?; C = 7%; D = 10µM*; E = ·; F = -1

Cc1noc(C)c1C(=O)Nc1nnc(-c2ccccc2)s1
  A = -13%; B = -8%; C = 3%; D = -4%; E = -15%; F = -1

CN(CC(=O)O)c1ccc(/C=C/c2ccnc3ccccc23)cc1
  A = ·; B = ·; C = ·; D = ·; E = -1%; F = ·

Clc1ccc2nccnc2c1
  A = ·; B = ·; C = ·; D = ·; E = -19%; F = ·

CCC(=O)Nc1nnc(-c2ccncc2)s1
  A = -4%; B = -8%; C = -1%; D = 0%; E = 16µM*; F = -2

Going on with the list:
canonical_smiles | miR-21 reporter | A549 viability | Nrf2 ARE act | Nrf2 block | ClpP mod | IL2 activator
CCNc1nnc(-c2ccncc2)s1 | -6% | 1% | 0% | 10% | -15% | -4
CC1CCN(C(=O)CN2c3ccc(C(C)C)cc3-c3ccccc3S2(=O)=O)CC1 | 6% | -1% | 6% | -3% | 1% | ·
CCOc1ccc(CNS(=O)(=O)c2ccc(-c3cc(C(F)(F)F)on3)s2)cc1 | -3% | 21% | 0% | 7% | 0% | ·
CCN1CCn2c3c(c4cc(C)ccc42)CCCC31 (centres undefined) | -30% | 11% | 3% | 15% | 28µM* | 0
N#C/C(=C/c1ccc(N2CCOCC2)o1)c1ccc(Cl)cc1 | 22% | ? | 13µM* | ? | -1% | 7
CCC1CN(C(=O)N2CCC(C(=O)Nc3cc(C)ccc3C)CC2)c2ccccc2O1 (centres undefined) | 26% | 12% | -1% | ? | -3% | ·
CCN(CC)c1ccc(/C=N/NC(=O)Nc2ccccc2)cc1 | -64% | ? | 14% | ? | 4% | 0
CCN(CC)c1ccc(/C=N\NC(N)=O)cc1 | -41% | -6% | 1% | 16% | 25µM* | -4
CCN(CC)c1ccc(/C=N/NC(=O)CC(C)C)cc1 | -25% | 15% | 1% | ? | 18µM* | 0
O=C([C@@H]1CC=C[C@@H]2CCN(C3CCCCC3)C(=O)[C@@H]21)N1CCOCC1 | · | · | · | · | 0% | ·
COc1ccc(C2=NN(C(=O)CSc3ncccn3)C(c3ccc(OC)cc3)C2)cc1 (centres undefined) | -3% | 2% | 4% | -23% | -11% | 0
COc1ccc(C2CC(c3ccc4ccccc4c3)=NN2C(=O)CSc2ncccn2)cc1 (centres undefined) | -23% | -19% | 4% | 1% | 22µM* | -1
COCCCNC(=O)c1sc2nc(C)c(C(=O)Nc3ccc(C)cc3C)c(-c3ccccc3Cl)c2c1N | 24% | -17% | 0% | -2%[9.27 µM] | -1% | ·
CCn1cc(C(=O)OCC(=O)OC2CC(C)CCC2C(C)C)c(=O)c2ccc(C)nc21 (centres undefined) | 3% | ? | 0% | 21µM* | 1% | -1
C=CCOC(=O)c1cn(CC)c2nc(C)ccc2c1=O | 1% | 1% | 0% | 9% | · | -1
